Results: patent US11766447B2, “3′3′-cyclic dinucleotide analogue comprising a cyclopentanyl modified nucleotide as sting modulator” (INSTITUTE OF ORGANIC CHEMISTRY AND BIOCHEMISTRY ASCR, V.V.I., priority 2019, dated 2023)

Chains of the proteins cited; added tags and fusions are not shown.
UniProt Q86WV6, whole entry H232R: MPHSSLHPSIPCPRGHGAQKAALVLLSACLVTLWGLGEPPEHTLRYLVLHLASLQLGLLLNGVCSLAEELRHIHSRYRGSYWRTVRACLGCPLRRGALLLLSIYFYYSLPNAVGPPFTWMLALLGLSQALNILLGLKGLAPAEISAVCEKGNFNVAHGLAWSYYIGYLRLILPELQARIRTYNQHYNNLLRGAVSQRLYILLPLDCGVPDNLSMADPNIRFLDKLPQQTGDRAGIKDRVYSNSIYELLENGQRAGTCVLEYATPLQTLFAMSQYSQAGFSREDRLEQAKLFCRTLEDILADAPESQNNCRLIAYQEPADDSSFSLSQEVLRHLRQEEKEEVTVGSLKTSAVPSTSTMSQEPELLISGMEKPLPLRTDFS

Target: WT STING (Homo sapiens, UniProt Q86WV6, H232R)
Experiment: 293T WT STING standard reporter assay
Assay type: cell-based
Set-up: host or cells: 293T (ATCC CRL-3216), stably transfected, with 4xISRE firefly luciferase reporter
Settings: 293T WT STING EC50 (μM), 293T wtSTING-FL cells, ISRE firefly luciferase; no digitonin; 7 hours with compounds; 8-point curve
Excerpt: Two complementary oligonucleotides of the sequence […] […] […] […] […] The oligonucleotides were mixed in equal molar amounts, hybridized, and cleaved by restriction endonucleases HindIII (cat. #. R0104S, NEB, Ipswich, USA) and BglII (cat. #R0144S, NEB, Ipswich, USA). Ultimately, they were ligated into plasmid pGL4.27 (cat. #E6651, Promega, Madison, USA) linearized with the same enzymes. As result the sequence with four ISRE sites was placed upstream of the minimum promoter of firefly luciferase reporter gene.
After 5 minutes incubation at room temperature (RT), 250 μL of the mixture was added dropwise to the cells in one well. Cells were incubated 36 hours at 37° C. with 5% CO2, and then detached with 0.05% Trypsin and 0.22 g/L EDTA (both cat. #L0941, Biowest, Riverside, USA).
Transfected cells were seeded onto poly-D-lysine coated six well plates at density 50,000 cells per 1 cm^2 in DMEM medium with high glucose containing 10% heat inactivated FBS, 30 μg/mL blasticidin (cat. #ant-b1-05, InvivoGen, San Diego, USA), 0.06 mg/ml Penicillin G and 0.1 mg/ml Streptomycin Sulfate (both cat. #. L0018, Biowest, Riverside, USA). The medium was replenished every 3-4 days until visible colonies of cells resistant to blasticidin were formed.
Blasticidin resistant cells stably expressing WT STING were further transfected with […] plasmid following the same procedure as described above. […] Homogeneous culture of stably double transfected cells was prepared by limiting dilution of cells in 96 well plates and wells with cells were selected that originated from a single cell.
The medium was removed next day and three-fold serial dilutions of compounds in 100 μl medium were added to the cells. The plates with cells were incubated for 7 hours at 37° C. with 5% CO2. After 50 μl of the medium was removed, 30 μl of ONE-Glo™ Luciferase Assay System reagent (cat. #E6120, Promega, Madison, USA) was added to each well and luminescence was read on Synergy H1 (Biotek, Winooski, USA).

| Compound | EC50 [µM] |
| --- | --- |
| CC(C)(C)C(=O)OCSP1(=O)OC[C@H]2O[C@@H](n3cnc4c(N)ncnc43)[C@H](F)[C@@H]2OP(=O)(O)OC[C@H]2C[C@@H](n3cnc4c(N)ncnc43)[C@H](F)[C@@H]2O1 (single isomer, unassigned) [Compound 149a] | 0.2 |
| CC(C)(C)C(=O)OCSP1(=O)OC[C@H]2O[C@@H](n3cnc4c(=O)[nH]c(N)nc43)[C@H](F)[C@@H]2OP(=O)(SCOC(=O)C(C)(C)C)OC[C@H]2C[C@@H](n3cnc4c(N)ncnc43)[C@H](F)[C@@H]2O1 (single isomer, unassigned) [Compound 150a] | 0.04 |
| CC(C)(C)C(=O)OCSP1(=O)OC[C@H]2O[C@@H](n3cnc4c(N)ncnc43)C(F)C2OP(=O)(SCOC(=O)C(C)(C)C)OC[C@H]2C[C@@H](n3cnc4c(N)ncnc43)C(F)C2O1 (stereo partly drawn) [Compound 140, (((2R,3R,3aR,7aR,9R,10S,10aR,14aR)-2,9-bis(6-amino-9H-purin-9-yl)-3,10-difluoro-5,12-dioxidodecahydro-2H-cyclopenta[d]furo[3,2-j][1,3,7,9]tetraoxa[2,8]di-phosphacyclododecine-5,12-diyl)bis(sulfanediyl))bis(methylene) bis(2,2-dimethylpropanoate)] | 0.001 |
| CC(C)(C)C(=O)OCSP1(=O)OC[C@H]2C[C@@H](n3cnc4c(=O)[nH]c(N)nc43)C[C@@H]2OP(=O)(SCOC(=O)C(C)(C)C)OC[C@H]2O[C@@H](n3cnc4c(N)ncnc43)[C@H](F)[C@@H]2O1 (stereo partly drawn) [Compound 148, {[(1S,6R,8R,9R,10R,15R,17R)-17-(2-amino-6-oxo-6,9-dihydro-1H-purin-9-yl)-8-(6-amino-9H-purin-9-yl)-3-({[(2,2-dimethylpropanoyl)oxy]methyl}sulfanyl)-9-fluoro-3,12-dioxo-2,4,7,11,13-pentaoxa-3λ^5,12λ^5-diphosphatricyclo[13.3.0.0^6,10]octadecan-12-yl]sulfanyl}methyl 2,2-dimethylpropanoate] | 0.02 |
| CC(C)(C)C(=O)OCSP1(=O)OC[C@H]2C[C@@H](n3cnc4c(N)ncnc43)C(F)[C@H]2OP(=O)(SCOC(=O)C(C)(C)C)OC[C@H]2O[C@@H](n3cnc4c(=O)[nH]c(N)nc43)[C@@H](F)C2O1 (stereo partly drawn) [Compound 150b, {[(1R,6R,8R,9R,10R,15R,17R,18S)-8-(2-amino-6-oxo-6,9-dihydro-1H-purin-9-yl)-17-(6-amino-9H-purin-9-yl)-3-({[(2,2-dimethylpropanoyl)oxy]methyl}sulfanyl)-9,18-difluoro-3,12-dioxo-2,4,7,11,13-pentaoxa-3λ^5,12λ^5-diphosphatricyclo[13.3.0.0^6,10]octadecan-12-yl]sylfanyl}methyl 2,2-dimethylpropanoate] | 0.2 |
| CC(C)(C)C(=O)OCSP1(=O)OC[C@H]2O[C@@H](n3cnc4c(N)ncnc43)C[C@@H]2OP(=O)(SCOC(=O)C(C)(C)C)OC[C@H]2C[C@@H](n3cnc4c(N)ncnc43)[C@H](F)[C@@H]2O1 (stereo partly drawn) [Compound 151, {[(1R,6R,8R,10S,15R,17R,18S)-8,17-bis(6-amino-9H-purin-9-yl)-3-({[(2,2-dimethylpropanoyl)oxy]methyl}sulfanyl)-18-fluoro-3,12-dioxo-2,4,7,11,13-pentaoxa-3λ^5,12λ^5-diphosphatricyclo[13.3.0.0^6,10]octadecan-12-yl]sulfanyl}methyl 2,2-dimethylpropanoate] | 0.008 |
